In patent US20130237511A1, “Copper Ion Delivery Platform for Pharmaceutical Agents” (University System of Georgia, priority 2012, published 2013):

System: National Cancer Institute 60 cancer cell line panel

SMILES: CC(=O)O[C@H]1C(=O)[C@@]2(C)[C@H]([C@H](OC(=O)c3ccccc3)[C@]3(O)C[C@H](OC(=O)[C@H](O)[C@@H](NC(=O)c4ccccc4)c4ccccc4)C(C)=C1C3(C)C)[C@]1(OC(C)=O)CO[C@@H]1C[C@@H]2O [Taxol, paclitaxel, reference compound]
- logGI50 (786-0 (Renal)): −7.59 Molar
- logGI50 (A498 (Renal)): −8 Molar
- logGI50 (A549/ATCC (Non-Small Cell Lung)): −7.98 Molar
- logGI50 (ACHN (Renal)): −6.02 Molar
- logGI50 (Average of panel): −7.588 Molar
- logGI50 (BT-549 (Breast)): −7.9 Molar
- logGI50 (CAKI-1 (Renal)): −6.5 Molar
- logGI50 (CCRF-CEM (Leukemia)): −8 Molar
- logGI50 (COLO205 (Colon)): −8 Molar
- logGI50 (DU-145 (Prostate)): −8 Molar
- logGI50 (EKVX (Non-Small Cell Lung)): −6.96 Molar
- logGI50 (HCC-2998 (Colon)): −7.99 Molar
- logGI50 (HCT-15 (Colon)): −6.54 Molar
- logGI50 (HCT-116 (Colon)): −8 Molar
- logGI50 (HL-60(TB) (Leukemia)): −8 Molar
- logGI50 (HOP-62 (Non-Small Cell Lung)): −7.62 Molar
- logGI50 (HOP-92 (Non-Small Cell Lung)): −7.82 Molar
- logGI50 (HS578T (Breast)): −8 Molar
- logGI50 (HT29 (Colon)): −8 Molar
- logGI50 (IGROV1 (Ovarian)): −7.74 Molar
- logGI50 (K-562 (Leukemia)): −7.9 Molar
- logGI50 (KM12 (Colon)): −8 Molar
- logGI50 (LOXIMVI (Melanoma)): −8 Molar
- logGI50 (M14 (Melanoma)): −7.99 Molar
- logGI50 (MALME-3M (Melanoma)): −6.34 Molar
- logGI50 (MCF7 (Breast)): −8 Molar
- logGI50 (MDA-MB-231/ATCC (Breast)): −8 Molar
- logGI50 (MDA-MB-435 (Melanoma)): −7.89 Molar
- logGI50 (MDA-MB-468 (Breast)): −8 Molar
- logGI50 (MDA-N (Breast)): −8 Molar
- logGI50 (MOLT-4 (Leukemia)): −7.8 Molar
- logGI50 (NCI-H23 (Non-Small Cell Lung)): −7.94 Molar
- logGI50 (NCI-H226 (Non-Small Cell Lung)): −6.01 Molar
- logGI50 (NCI-H322M (Non-Small Cell Lung)): −8 Molar
- logGI50 (NCI-H460 (Non-Small Cell Lung)): −8 Molar
- logGI50 (NCI-H522 (Non-Small Cell Lung)): −8 Molar
- logGI50 (NCI/ADR-RES (Ovarian)): −5.72 Molar
- logGI50 (OVCAR-3 (Ovarian)): −7.85 Molar
- logGI50 (OVCAR-4 (Ovarian)): −5.83 Molar
- logGI50 (OVCAR-5 (Ovarian)): −7.82 Molar
- logGI50 (OVCAR-8 (Ovarian)): −8 Molar
- logGI50 (PC-3 (Prostate)): −8 Molar
- logGI50 (RPMI-8226 (Leukemia)): −8 Molar
- logGI50 (RXF393 (Renal)): −8 Molar
- logGI50 (SF-268 (CNS)): −7.96 Molar
- logGI50 (SF-295 (CNS)): −7.83 Molar
- logGI50 (SF-539 (CNS)): −8 Molar
- logGI50 (SK-MEL-2 (Melanoma)): −8 Molar
- logGI50 (SK-MEL-5 (Melanoma)): −8 Molar
- logGI50 (SK-MEL-28 (Melanoma)): −6.06 Molar
- logGI50 (SK-OV-3 (Ovarian)): −7.95 Molar
- logGI50 (SN12C (Renal)): −7.2 Molar
- logGI50 (SNB-19 (CNS)): −7.94 Molar
- logGI50 (SNB-75 (CNS)): −8 Molar
- logGI50 (SR (Leukemia)): −7.5 Molar
- logGI50 (SW-620 (Colon)): −8 Molar
- logGI50 (T-47D (Breast)): −7.06 Molar
- logGI50 (TK-10 (Renal)): −7.03 Molar
- logGI50 (U251 (CNS)): −8 Molar
- logGI50 (UACC-62 (Melanoma)): −7.87 Molar
- logGI50 (UACC-257 (Melanoma)): −6.64 Molar
- logGI50 (UO-31 (Renal)): −6.43 Molar

Read-outs that look alike come from different tables or passages of the source.
